Experimental data from patent US7838542B2, “Bicyclic compositions and methods for modulating a kinase cascade” (Kinex Pharmaceuticals, LLC, priority 2006, dated 2010).

Target: pp60^c-src (Homo sapiens, UniProt P12931)
Assay: Src inhibition (RR-SRC phosphorylation), Cellular Mimetic assay

## N#C/C(=C\c1ccc(O)c(O)c1)C(N)=S [Tyrophostin A47, Tyrphostin A47, reference compound]
  % Inhibition at 100 μM (std. dev.): 43 (+/−3) %
